Literature values as cited in US20120070472A1, “CHRONOTHERAPEUTIC COMPOSITIONS AND METHODS OF THEIR USE” (Circ Pharma Research & Development Limited, priority 2004, published 2012).

Settings: in vivo

In the case of Methyldopa, the “Elimination Half-Life” value is given as 1.8 h.
